Where “and” joins values, the source holds several entries; their conditions need not be identical. Equal values may be shown once.
Legend:
[1] = biological target: membrane-associated TNFα (membrane-bound mutant TNFα with amino acids 77 through 88 removed) on CHO K-1 cells (human) (UniProt P01375); test: flow cytometry on mTNFα-expressing CHO cells, 10 µg/mL antibody, anti-human kappa-FITC
[2] = biological target: cynomolgus TNFα (cynomolgus monkey) (UniProt P79337); test: ELISA, antibody captured on anti-human kappa coated plate, biotinylated cynomolgus TNFα titrated (EC50 in M of b-cynomolgus TNFα), prolonged wash at pH 6.0, neutravidin-HRP
[3] = biological target: membrane-associated TNFα (membrane-bound mutant TNFα with amino acids 77 through 88 removed) on CHO K-1 cells (human) (UniProt P01375); test: cell ELISA on mTNFα CHO cells against ELISA on recombinant human TNFα
[4] = biological target: membrane-associated TNFα (membrane-bound mutant TNFα with amino acids 77 through 88 removed) on CHO K-1 cells (human) (UniProt P01375); test: cell ELISA on live mTNFα-expressing CHO cells, on ice
[5] = biological target: membrane-associated TNFα (membrane-bound mutant TNFα with amino acids 77 through 88 removed) on CHO K-1 cells (human) (UniProt P01375); test: cell ELISA on live mTNFα-expressing CHO cells, average of the runs
[6] = biological target: recombinant human TNFα (human) (UniProt P01375)
[7] = biological target: recombinant human TNFα (human) (UniProt P01375); remark: listed apart in the source
[8] = biological target: cynomolgus TNFα (cynomolgus monkey) (UniProt P79337); test: ELISA, antibody captured on anti-human kappa coated plate, biotinylated cynomolgus TNFα titrated (EC50 in M of b-cynomolgus TNFα), pH 7.4 wash, neutravidin-HRP
[9] = biological target: cynomolgus TNFα (cynomolgus monkey) (UniProt P79337)
[10] = biological target: recombinant human TNFα (human) (UniProt P01375); test: ELISA, antibody captured on anti-human Fc coated plate, biotinylated human TNFα titrated (EC50 in M of b-TNF), prolonged wash at pH 6.0, neutravidin-HRP
[11] = biological target: recombinant human TNFα (human) (UniProt P01375); test: ELISA, immobilised recombinant human TNFα
murine TNFα (mouse) [12] = biological target: murine TNFα (mouse) (UniProt P06804); test: ELISA, antibody captured on anti-human Fc coated plate, biotinylated murine TNFα titrated (EC50 in M of b-murine TNFα), prolonged wash at pH 6.0, neutravidin-HRP
[13] = biological target: recombinant human TNFα (human) (UniProt P01375); test: ELISA, antibody captured on anti-human Fc coated plate, biotinylated human TNFα titrated (EC50 in M of b-TNF), prolonged wash at pH 7.4, neutravidin-HRP
[14] = biological target: recombinant human TNFα (human) (UniProt P01375); test: ELISA, coated human TNFα, prolonged wash pH 6.0 against pH 7.4
[15] = biological target: recombinant human TNFα (human) (UniProt P01375); test: BLI (Octet), follow-up study, biotinylated human TNFα on sensor, pH 7.4, global 1:1 fit
[16] = biological target: recombinant human TNFα (human) (UniProt P01375); test: ELISA, immobilised recombinant human TNFα, average (one run)
murine TNFα (mouse) [17] = biological target: murine TNFα (mouse) (UniProt P06804); test: ELISA, antibody captured on anti-human Fc coated plate, biotinylated murine TNFα titrated (EC50 in M of b-murine TNFα), brief wash at pH 7.4, neutravidin-HRP
murine TNFα (mouse) [18] = biological target: murine TNFα (mouse) (UniProt P06804); test: ELISA, antibody captured on anti-human Fc coated plate, biotinylated murine TNFα titrated (EC50 in M of b-murine TNFα), prolonged wash at pH 7.4, neutravidin-HRP
murine TNFα (mouse) [19] = biological target: murine TNFα (mouse) (UniProt P06804); test: ELISA, antibody captured on anti-human Fc coated plate, biotinylated murine TNFα titrated (EC50 in M of b-murine TNFα), prolonged wash at pH 6.0, neutravidin-HRP; remark: listed apart in the source
murine TNFα (mouse) [20] = biological target: murine TNFα (mouse) (UniProt P06804); test: ELISA, antibody captured on anti-human Fc coated plate, biotinylated murine TNFα titrated (EC50 in M of b-murine TNFα), prolonged wash at pH 7.4, neutravidin-HRP; remark: listed apart in the source
[21] = biological target: recombinant human TNFα (human) (UniProt P01375); test: ELISA on plate-coated recombinant human TNFα, antibody titrated, binding at pH 7.4, prolonged wash at pH 6.0
murine TNFα (mouse) [22] = biological target: murine TNFα (mouse) (UniProt P06804); test: ELISA, antibody captured on anti-human Fc coated plate, biotinylated murine TNFα titrated (EC50 in M of b-murine TNFα), prolonged wash at pH 6.0, neutravidin-HRP; curve has no upper plateau (A450 about 0.43 at log -7.9)
murine TNFα (mouse) [23] = biological target: murine TNFα (mouse) (UniProt P06804); test: ELISA, antibody captured by anti-human Fc, biotinylated murine TNFα titrated, short wash pH 7.4
[24] = biological target: cynomolgus TNFα (cynomolgus monkey) (UniProt P79337); test: ELISA, antibody captured on anti-human kappa coated plate, biotinylated cynomolgus TNFα titrated (EC50 in M of b-cynomolgus TNFα), prolonged wash at pH 6.0, neutravidin-HRP; curve has no upper plateau (A450 about 0.6 at log -7.3)
murine TNFα (mouse) [25] = biological target: murine TNFα (mouse) (UniProt P06804); test: ELISA, antibody captured, biotinylated murine TNFα titrated, prolonged wash pH 6.0; prolonged pH 6.0 wash (FIG. 19B)
murine TNFα (mouse) [26] = biological target: murine TNFα (mouse) (UniProt P06804); test: ELISA, antibody captured, biotinylated murine TNFα titrated, prolonged wash pH 7.4; pH 7.4 (FIG. 19A)

Substance | EC50 [2] [nM] | EC50 [8] [nM] | IC50: inhibition of stimulation of HEK-Blue TNFα reporter cells by 5 pM cynomolgus TNFα (SEAP, A650) [9] [M] | EC50 (murine TNFα (mouse) [12]) [nM] | EC50 (murine TNFα (mouse) [18]) [nM] | EC50 (murine TNFα (mouse) [19]) [nM] | EC50 (murine TNFα (mouse) [20]) [nM] | further results
AF-B2631 (antibody) | 1.73 | 0.267 | 4.26e-10 |  |  |  |  | MFI [1]: 618 MFI; Ratio (mTNFα/rTNFα) of average EC50 [3]: 3.9; EC50 [4]: 0.41 nM and 0.343 nM and 0.274 nM; EC50 [5]: 0.342 nM; IC50: inhibition of stimulation of HEK-Blue TNFα reporter cells by 5 pM human TNFα (SEAP, A650) [6]: 3.22e-10 M; IC50: inhibition of stimulation of THP1-Blue NF-kB reporter cells by 10 pM human TNFα (SEAP, A650) [7]: 1.58e-11 M
AF-B2631 (antibody; other documents disagree on this pair) |  |  |  | 0.0892 | 0.0471 | 0.0593 | 0.0663 | EC50 [10]: 0.0721 nM; EC50 [11]: 0.087 nM; EC50 [13]: 0.0621 nM; fold increase of EC50, pH 6.0 wash against pH 7.4 wash [14]: 1.3 fold; Kd [15]: < 0.001 nM; koff [15]: < 1e-07 s⁻¹; kon [15]: 414000 M⁻¹ s⁻¹; EC50 [16]: 0.087 nM; EC50 (murine TNFα (mouse) [17]): 0.106 nM; EC50 [21]: 0.111 nM
AF-B2637 (antibody) | 0.807 | 0.514 | 1.78e-09 |  |  |  |  | 
AF-B2637 (antibody; other documents disagree on this pair) |  |  |  | 1.78 | 0.376 |  | 0.534 | EC50 (murine TNFα (mouse) [22]): 2.25 nM; EC50 (murine TNFα (mouse) [23]): 0.4 nM
AF-M2630 (antibody) | 0.782 |  | 2.83e-10 |  |  |  |  | 
AF-M2630 (antibody; other documents disagree on this pair) |  |  |  | 0.0633 | 0.0598 | 0.0575 | 0.0755 | 
AF-M2631 (antibody) |  | 0.307 | 6.43e-09 |  |  |  |  | EC50 [24]: 13.8 nM
AF-M2631 (antibody; other documents disagree on this pair) |  |  |  | 0.145 | 0.0619 | 0.109 | 0.0832 | EC50 (murine TNFα (mouse) [17]): 0.138 nM
AF-M2633 (antibody; other documents disagree on this pair) |  |  |  |  |  |  |  | EC50 (murine TNFα (mouse) [25]): 0.573 nM; EC50 (murine TNFα (mouse) [26]): 0.217 nM
